The values below come from ChEMBL document CHEMBL1129945, “New 2-piperazinylbenzimidazole derivatives as 5-HT3 antagonists. Synthesis and pharmacological evaluation” (J Med Chem, 1997).

Amino acid sequences for entries named in this document (tags omitted).
UniProt P14842, whole entry: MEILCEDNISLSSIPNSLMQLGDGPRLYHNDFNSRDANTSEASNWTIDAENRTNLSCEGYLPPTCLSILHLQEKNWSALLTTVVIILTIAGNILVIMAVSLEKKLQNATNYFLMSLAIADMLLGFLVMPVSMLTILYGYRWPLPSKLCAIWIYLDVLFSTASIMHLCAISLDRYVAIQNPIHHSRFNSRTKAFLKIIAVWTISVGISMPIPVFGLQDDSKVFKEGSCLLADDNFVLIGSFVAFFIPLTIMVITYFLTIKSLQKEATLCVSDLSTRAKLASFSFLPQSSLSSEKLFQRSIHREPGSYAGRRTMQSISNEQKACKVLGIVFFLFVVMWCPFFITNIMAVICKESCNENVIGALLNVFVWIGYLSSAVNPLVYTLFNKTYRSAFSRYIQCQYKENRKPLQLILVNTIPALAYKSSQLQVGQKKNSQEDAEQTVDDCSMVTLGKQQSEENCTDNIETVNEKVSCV

The assay has as its target 5-hydroxytryptamine receptor 2A (Rattus norvegicus, UniProt P14842). Put plainly: Binding affinity was evaluated in vitro by displacement of [3H]ketanserin from 5-hydroxytryptamine 2A receptor on rat cortical membrane. The gist of the method: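 Prefrontal cortex membranes from adult male Wistar rats (220-280 g), final dilution 1:60 wt/vol in 50 mM Tris-HCl. Displacer added in Tris-HCl with 10% ethanol. [3H]ketanserin at 0.8 nM final. Nonspecific binding with 1 µM methysergide. Triplicate competition, 10-12 displacer concentrations, two separate experiments. Filtration and scintillation counting. IC50 and Ki calculated.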
On the technique in general: In a radioligand displacement assay an active substance lowers the binding of a labelled ligand.

pKi: −log10 of the molar value.

A word on the pKi: it is the negative decadic logarithm of the Ki, by convention in mol/L. Read a low pKi as a high Ki. The molecule `Cc1nc2sccn2c(=O)c1CCN1CCC(=C(c2ccc(F)cc2)c2ccc(F)cc2)CC1` [RITANSERIN] had a negative logarithm of the Ki (pKi) of 9.20.
